What was measured:
[1] = test system: MCF7^HER2 breast cancer cells; test: Cell viability assay, fraction of cells affected (fa), MCF7^HER2; type: cell-based
Protocol: (§1) FIGS. 5(a)-(d) are a series of bar graphs summarizing results for in vitro treatment of cancer cell lines with free bivalent or liposomal multivalent Ab constructs. […] Fraction of cells affected (fa) was calculated as follows: fa=1−fu, where fu was the fraction of remaining viable cells calculated as the ratio of the absorbance readings from the MTT assay for treated and untreated groups. Data represent mean ±S.E.M. from 3 independent experiments. * and ^# denote P<0.05 as compared to the free Ab treatment (ANOVA and Scheffe test for post-hoc comparisons).
(§2) Cells (3,500 cells/well for LCC6^HER2 and MCF7^HER2, and 20-50,000 cells/well for Ramos and 20,000 cells/well for Z-138) were seeded in 96-well plates. In the case of LCC6^HER2 and MCF7^HER2 cells, treatment was added after an overnight incubation to allow cell adherence to plates. In the case of Ramos and Z-138 cells, treatment was added on the same day after seeding. Cell viability was determined using 3-(4,5-dimethylthiazol-2-yl)-2,5-diphenyltetrazolium bromide (MTT) as previously described ^28 or Alamar Blue added in 10 μL/well with an 18-h incubation before reading fluorescence in a Fluorstar (v 1.2) plate reader (BMG Labtechnologies, Offenburg, Germany).
(§3) To test if the biological activities of the Ab would be enhanced when presented in the multivalent format, the activity of the free, bivalent Ab was compared to that of the multivalent construct in the respective cancer cell lines. Standard cell viability assays were used to determine the fraction of cells affected (fa) upon treatment. For trastuzumab, testing was conducted in LCC6^HER2 and MCF7^HER2 breast cancer cell lines under various culture conditions (FIG. 5a, b).

[2] = test system: HER2 and its downstream target Akt; test: Western blot analyses, LCC6^HER2; type: cell-based; details: 200 μg/mL, 5 days, reduced serum (0.1%)
Protocol: FIGS. 6(a)-6(b) are bar graphs and Western blot analyses showing modulation of cancer cell survival pathways by multivalent liposomal Ab constructs. […] The concentration of trastuzumab was 200 μg/mL. (b) Representative cell cycle analysis, DAPI staining and Western blot analyses of Z-138 cells after exposure to free or liposomal rituximab for 3 days. The concentration of rituximab was 15 μg/mL. […] For DAPI staining, yellow arrows indicate apoptotic morphology of DNA condensation or fragmentation associated with Z-138 cells exposed to various treatments. The scale bar is equivalent to 50 μm, and all images are shown at the same magnification.
The following antibodies were used in this study: anti-p-HER2-Tyr-1248/Tyr-1173; anti-HER2; anti-p-Akt-Ser-473 and anti-Akt (all were rabbit polyclonal, New England Biolabs) and anti-human β-actin (mouse monoclonal, Sigma). The secondary antibody was horseradish peroxidase-conjugated anti-mouse or anti-rabbit IgG (Promega, Madison, Wis.). Proteins were detected by enhanced chemiluminescence (Amersham Pharmacia Biotech, Buckinghamshire, England), and visualized after exposure to Kodak autoradiography film. Equivalent amounts of protein (30 μg/lane determined by Bradford assay) were resolved by 12% SDS-polyacrylamide pre-made gels (Bio-Rad).

[3] = test system: LCC6^HER2 breast tumor xenograft; test: In vivo efficacy, LCC6^HER2 breast tumor xenograft model; parameters: species or system mice; details: 1 mg/kg i.v. twice weekly for 5 weeks, from Day 18
[4] = test system: LCC6^HER2 breast cancer cells; test: Cell viability assay, fraction of cells affected (fa), LCC6^HER2; type: cell-based
Protocol: as §1, §2, §3

[5] = mouse, in vivo, 100 mg/kg
[6] = 0.1% serum or heregulin, 5 days
[7] = 10% serum, 5 days, 1 mg/mL, data not shown
[8] = 0.1% serum or heregulin, 200 μg/mL

Row | Substance | fraction of cells affected (fa), maximum [1, 6] | fraction of cells affected (fa) ([1]; 10% serum, 5 days) | activity (fa) at 1 mg/mL, in words [1, 7] | expression of p-HER2 and total HER2 [2] | p-Akt level [2] | anti-tumor activity (tumor growth) [3] | fraction of cells affected (fa), maximum [4, 6] | fraction of cells affected (fa) ([4]; 10% serum, 5 days) | activity (fa) at 1 mg/mL, in words [4, 7] | fraction of cells affected (fa) [1, 8] | fa values compared to free trastuzumab, in words ([1]; 5 days, above 100 μg/mL) | circulation longevity of the liposome carrier [5] | fraction of cells affected (fa) [4, 8] | fa values compared to free trastuzumab, in words ([4]; 5 days, above 10 μg/mL)
1 | free trastuzumab: therapeutic antibody; target molecule HER2 | ≤ 0.2 | at most 0.12 | no improvement in the activity | down-regulation | not capable of reducing | long-term tumor growth inhibition | ≤ 0.2 | at most 0.12 | no improvement in the activity |  |  |  |  | 
2 | liposomal trastuzumab: trastuzumab conjugated to DSPC/CHOL/DSPE-PEG2000/DSPE-PEG2000-MAL liposomes, Ab-to-lipid ratio 50-70 μg/μmol |  |  |  | complete loss | complete loss |  |  |  |  | ~0.7 | significantly higher | did not significantly alter | ~0.7 | significantly higher

Reference: patent publication US20080286350A1, “Formulation of Multivalent Antibody Constructs and Use of Same for Cancer Therapy” (BC CANCER AGENCY, priority 2004, published 2008)
